Experimental findings from patent US8852876B2, “Label free biosensors and cells” (Corning Incorporated, priority 2008, dated 2014) are described below.

Sequences of proteins named here, by UniProt entry; tags and fusion partners are left off. A change or cut given only in a name is not applied to a line headed by its entry.
UniProt P08482: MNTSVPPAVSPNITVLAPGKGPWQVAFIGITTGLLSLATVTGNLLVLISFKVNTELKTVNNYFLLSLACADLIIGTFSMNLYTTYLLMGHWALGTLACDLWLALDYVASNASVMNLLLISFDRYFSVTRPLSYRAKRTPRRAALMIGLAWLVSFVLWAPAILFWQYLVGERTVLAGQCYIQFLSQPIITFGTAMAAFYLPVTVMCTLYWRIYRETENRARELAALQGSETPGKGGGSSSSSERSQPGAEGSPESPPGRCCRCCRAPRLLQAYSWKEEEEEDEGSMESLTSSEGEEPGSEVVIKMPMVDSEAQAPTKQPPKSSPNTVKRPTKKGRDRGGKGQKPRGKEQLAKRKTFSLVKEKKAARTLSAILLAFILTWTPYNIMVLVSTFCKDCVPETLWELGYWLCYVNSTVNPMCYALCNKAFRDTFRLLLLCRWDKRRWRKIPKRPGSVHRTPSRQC

The experiment deals with T1, rat muscarinic receptor subtype 1 (Rattus norvegicus, UniProt P08482).
T1 construct: expressed in transfected cells; host or cells: CHO (M1 CHO)
Nature of the experiment: GPCR agonist-induced mass redistribution in M1 CHO cells (optical LID). In kind it is cell-based. The conditions noted are these: 10 μM; compared with CHO cells.

Each structure is given as a SMILES string.

In the case of `Clc1cccc(Cl)c1N=C1NCCN1` [clonidine], the “Ligand-induced response in M1-CHO cells” value was “induced mass redistribution signals”.
